Assay results published in PMC11513893, “Discovery of Oral Degraders of the ROS1 Fusion Protein with Potent Activity against Secondary Resistance Mutations” (Journal of Medicinal Chemistry, 2024).

What was measured:
[1] = tested on: Ba/F3 CD74-ROS1 non mutant; assay: Antiproliferation assay (Alamar Blue, 72 h); assay type: cell-based; settings: Mus musculus, BaF3, 72 h, Ba/F3 cells, cell growth inhibition
Source text: (§1) To assess targeted degradation of ROS1 fusion proteins, we first established a mouse pro-B cell line Ba/F3 as a model expressing the CD74-ROS1 oncogene or CD74-ROS1 with clinically observed secondary/tertiary mutations. The Ba/F3 cell line is dependent on interleukin-3 for survival and proliferation. Upon transduction of oncogenic ROS1, Ba/F3 cells become independent of interleukin-3 but dependent on the transduced driver gene.
(§2) Ba/F3 immortalized murine bone marrow–derived pro-B cells were obtained from Creative Biogene (Shirley, NY) and cultured in RPMI supplemented with 10% FBS and IL3 (0.5 ng/mL). Ba/F3 cells expressing ROS1 variants were maintained in RPMI supplemented with 10% FBS and puromycin (0.7 mg/mL). […] Each compound was dissolved in DMSO and serially diluted in RPMI for cell culture experiments.
(§3) To assess the 72 h effect of drug treatment on cell proliferation, 2000 to 3000 cells were plated in replicates of three in 96-well plates. The plates were placed in an incubator at 37 °C, 5% CO2 for 72 h. Following drug treatments, the cells were incubated with the Alamar Blue Assay reagent (BioRad), 5 μL each well for 4 h at 37 °C and 5% CO2. Luminescence was measured on a multiplate reader and analyzed. […] IC50 values were determined using a nonlinear regression model with a sigmoidal dose response in GraphPad. […]

Ba/F3 ROS1 L2026M = assay: Antiproliferation assay; assay type: cell-based; settings: Mus musculus, BaF3; Ba/F3 cells, cell growth inhibition
Source text: as §1, §2, §3

In the case of C[C@@H](Oc1cc(-c2cnn(C3CCNCC3)c2)cnc1N)c1c(Cl)ccc(F)c1Cl [crizotinib], the IC50 [1] is reported as 16 ± 3.5 nM and the IC50 (Ba/F3 ROS1 L2026M) is reported as 77 ± 9 nM.
